# Experimental data taken from patent US6583175B2, “Alkylxanthates and use of alkylxanthates in the integrated pest management” (Council of Scientific & Industrial Research, priority 2001, dated 2003).
# Key:
# [1] = system: Brine shrimp, Artemia salina; assay: Brine shrimp bioassay (toxic activity); settings: Artemia salina nauplii, 24 hours
# Helicoverpa armigera = settings: topical
substance,measurement,setting,value
Methylene Bis(n-butylxanthate),LC50 ± S.E.,[1],34.65 ± 3.91 mg/L
"O,O-diethyl thiophospate phenethylxanthate",Adult emergence: Abnormal adults,Helicoverpa armigera; 25 μg/Insect,7
same,Adult emergence: Intermediates,Helicoverpa armigera; 25 μg/Insect,5
same,Adult emergence: Non emergence,Helicoverpa armigera; 25 μg/Insect,9
same,Adult emergence: Normal adults,Helicoverpa armigera; 25 μg/Insect,15
same,Larval mortality (%),Helicoverpa armigera; 25 μg/Insect,47%
same,Pupal Formation: Abnormal pupa,Helicoverpa armigera; 25 μg/Insect,13
same,Pupal Formation: Normal pupa,Helicoverpa armigera; 25 μg/Insect,23
same,Pupal Formation: Pupal Mortality,Helicoverpa armigera; 25 μg/Insect,17
same,Adult emergence: Intermediates,Helicoverpa armigera; 35 μg/Insect,4
same,Adult emergence: Non emergence,Helicoverpa armigera; 35 μg/Insect,8
same,Adult emergence: Normal adults,Helicoverpa armigera; 35 μg/Insect,9
same,Larval mortality (%),Helicoverpa armigera; 35 μg/Insect,62%
same,Pupal Formation: Abnormal pupa,Helicoverpa armigera; 35 μg/Insect,15
same,Pupal Formation: Normal pupa,Helicoverpa armigera; 35 μg/Insect,12
same,Pupal Formation: Pupal Mortality,Helicoverpa armigera; 35 μg/Insect,11
same,Adult emergence: Abnormal adults,Helicoverpa armigera; 50 μg/Insect,7
same,Adult emergence: Intermediates,Helicoverpa armigera; 50 μg/Insect,2
same,Adult emergence: Non emergence,Helicoverpa armigera; 50 μg/Insect,2
same,Adult emergence: Normal adults,Helicoverpa armigera; 50 μg/Insect,5
same,Larval mortality (%),Helicoverpa armigera; 50 μg/Insect,71%
same,Pupal Formation: Abnormal pupa,Helicoverpa armigera; 50 μg/Insect,11
same,Pupal Formation: Normal pupa,Helicoverpa armigera; 50 μg/Insect,5
same,Pupal Formation: Pupal Mortality,Helicoverpa armigera; 50 μg/Insect,9
same,Adult emergence: Abnormal adults,Helicoverpa armigera; 75 μg/Insect,1
same,Adult emergence: Intermediates,Helicoverpa armigera; 75 μg/Insect,0
same,Adult emergence: Non emergence,Helicoverpa armigera; 75 μg/Insect,3
same,Adult emergence: Normal adults,Helicoverpa armigera; 75 μg/Insect,4
same,Larval mortality (%),Helicoverpa armigera; 75 μg/Insect,85%
same,Pupal Formation: Abnormal pupa,Helicoverpa armigera; 75 μg/Insect,5
same,Pupal Formation: Normal pupa,Helicoverpa armigera; 75 μg/Insect,3
same,Pupal Formation: Pupal Mortality,Helicoverpa armigera; 75 μg/Insect,7
same,Adult emergence: Abnormal adults,Helicoverpa armigera; 100 μg/Insect,1
same,Adult emergence: Intermediates,Helicoverpa armigera; 100 μg/Insect,0
same,Adult emergence: Non emergence,Helicoverpa armigera; 100 μg/Insect,5
same,Adult emergence: Normal adults,Helicoverpa armigera; 100 μg/Insect,0
same,Larval mortality (%),Helicoverpa armigera; 100 μg/Insect,92%
same,Pupal Formation: Abnormal pupa,Helicoverpa armigera; 100 μg/Insect,6
same,Pupal Formation: Normal pupa,Helicoverpa armigera; 100 μg/Insect,0
same,Pupal Formation: Pupal Mortality,Helicoverpa armigera; 100 μg/Insect,3

# Like-named read-outs stand apart in the source and are kept apart here.
